Measured values from patent US20140271765A1 (priority 2013, published 2014).
Some compounds may have been tested in ways that are not shown here.

How the values were obtained:
[1] = dogs with 5 implants
[2] = tested on: rats; settings: cited from earlier work
[3] = tested on: rat; settings: cited from earlier work
[4] = Plasma profile in subjects with 4 implants without rescue medication (Example 4); settings: no supplemental buprenorphine

With norbuprenorphine as the substance, how does the Norbuprenorphine plasma concentrations [1] read?
The Norbuprenorphine plasma concentrations was “generally below the limit of quantitation”.

And the “analgesic effect as % of the analgesic effect achieved by buprenorphine” value [2]?
The value was 2%.

What about the “respiratory-depressant activity, times more potent than buprenorphine” value [3] of the same substance?
Its value is “approximately 10 times”.

And the “time until plasma concentration reaches a plateau” value [4]?
Its value is “about a few days to about two weeks”.
